Measured values: US12637467B2, “Inhibitor of BTK and mutants thereof” (Newave Pharmaceutical Inc., priority 2019, dated 2026)

The chains behind the UniProt entries cited, without tags or fusion partners.
UniProt Q06187, whole entry: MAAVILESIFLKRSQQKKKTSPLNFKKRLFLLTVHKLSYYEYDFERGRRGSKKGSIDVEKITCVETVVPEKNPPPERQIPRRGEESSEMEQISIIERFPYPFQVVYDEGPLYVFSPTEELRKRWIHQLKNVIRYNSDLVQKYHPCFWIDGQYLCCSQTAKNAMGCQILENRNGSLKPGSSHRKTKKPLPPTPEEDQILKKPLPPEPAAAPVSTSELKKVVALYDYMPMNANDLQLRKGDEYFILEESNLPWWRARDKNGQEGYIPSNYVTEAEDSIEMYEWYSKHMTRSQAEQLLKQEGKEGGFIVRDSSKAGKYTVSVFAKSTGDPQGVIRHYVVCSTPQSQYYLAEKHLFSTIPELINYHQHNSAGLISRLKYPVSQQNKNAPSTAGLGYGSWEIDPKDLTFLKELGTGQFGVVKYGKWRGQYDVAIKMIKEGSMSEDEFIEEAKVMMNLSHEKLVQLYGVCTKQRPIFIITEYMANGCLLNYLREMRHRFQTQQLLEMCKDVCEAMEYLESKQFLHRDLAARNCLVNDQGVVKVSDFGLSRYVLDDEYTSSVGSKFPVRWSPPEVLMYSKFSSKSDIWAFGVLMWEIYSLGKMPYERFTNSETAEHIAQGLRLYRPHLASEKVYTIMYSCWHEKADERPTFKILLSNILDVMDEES

Target: WT BTK (Homo sapiens, UniProt Q06187)
Experiment: In vitro dialysis assay (irreversibility assay), WT BTK
Assay type: biochemical
Settings: for Recovery after 24 h dialysis: 0.003 mM compound pre-incubated with 2 nM BTK for 2 hr, dialyzed 24 hr against buffer with 40 mM ATP, BTK activity vs non-dialyzed samples; for Conclusion (WT BTK): reversible or irreversible inhibition after 24 hr dialysis

| SMILES | Recovery after 24 h dialysis | Conclusion (WT BTK) | Recovery after 24 h dialysis (tested form: HCl) | Conclusion (WT BTK) (tested form: HCl) |
| --- | --- | --- | --- | --- |
| C=CC(=O)Nc1cc(Nc2nc(-c3ccnc(N4CCn5c(cc6c5CC(C)(C)C6)C4=O)c3CO)cn(C)c2=O)ccc1N1CCN(C2C[C@@H](C)O[C@@H](C)C2)C[C@@H]1C (stereo partly shown) | ~1% | Irreversible/covalent inhibition | – | – |
| C=CC(=O)Nc1cc(Nc2nc(-c3ccnc(N4CCn5c(cc6c5CC(C)(C)C6)C4=O)c3CO)cn(C)c2=O)ccc1N1CCN(C2CCO[C@H](C)C2)C[C@@H]1C (stereo partly shown) | – | – | ~1% | Irreversible/covalent inhibition |
